Reference: BindingDB's records for doi:10.7270/Q2ZP44GN (Ambit Biosciences, 2008)

Chains of the proteins cited; added tags and fusions are not shown.
UniProt Q16539, whole entry: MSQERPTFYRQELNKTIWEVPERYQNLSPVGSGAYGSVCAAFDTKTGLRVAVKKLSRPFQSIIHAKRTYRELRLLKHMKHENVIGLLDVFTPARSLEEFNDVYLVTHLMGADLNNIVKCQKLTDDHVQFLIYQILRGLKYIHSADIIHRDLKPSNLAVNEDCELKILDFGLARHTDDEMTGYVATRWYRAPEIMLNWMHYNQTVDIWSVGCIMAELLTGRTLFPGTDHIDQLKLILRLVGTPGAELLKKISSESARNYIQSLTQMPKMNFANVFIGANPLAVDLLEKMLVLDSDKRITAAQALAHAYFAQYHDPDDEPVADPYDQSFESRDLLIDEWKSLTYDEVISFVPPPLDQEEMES

Target: Mitogen-activated protein kinase 14 (Homo sapiens, UniProt Q16539)

SMILES: NC(=O)c1ccc(-c2nc(-c3ccc4c(c3)OCO4)c(-c3ccccn3)[nH]2)cc1 [SB-431542]
- Kd: 170 nM
